How the values were obtained:
Mus musculus [1] = assay: In vivo antagonist nature after subcutaneous administration at 30 mg/Kg to mice using tail flick (TF) antagonist assay vs. morphine; parameters: scale not given: the % may be the effect or the level left
Mus musculus [2] = assay: In vivo antagonist/agonist nature after subcutaneous administration to mice using tail flick (TF) antagonist assay vs. morphine
Mus musculus [3] = assay: In vivo antagonist nature after subcutaneous administration at 10 mg/Kg to mice using tail flick (TF) antagonist assay vs. morphine; parameters: scale not given: the % may be the effect or the level left
Mus musculus [4] = assay: In vivo antagonist nature after subcutaneous administration at 3 mg/Kg to mice using tail flick (TF) antagonist assay vs. morphine; parameters: scale not given: the % may be the effect or the level left
Mus musculus [5] = assay: In vivo antagonist/agonist nature after subcutaneous administration using hot plate assay

Compound | ED50 (Mus musculus [2]) [mg/kg] | also measured
CO[C@]12C=C[C@@]3(C[C@@H]1N)[C@H]1Cc4ccc(O)c5c4[C@@]3(CCN1CC1CC1)[C@H]2O5 | 30 | Effect (Mus musculus [1]): 52%; Effect (Mus musculus [3]): 30%; Effect (Mus musculus [4]): 5%
C=CCN1CC[C@]23c4c5ccc(O)c4O[C@H]2C2(OC)C=C[C@@]3(C[C@@H]2N=S)[C@H]1C5.O=C(O)C(=O)O | 0.6 | –
COC(=O)/C=C/C(=O)N[C@H]1C[C@@]23C=CC1(OC)[C@@H]1Oc4c(O)ccc5c4[C@@]12CCN(CC1CC1)[C@@H]3C5.O=C(O)C(=O)O | 1.5 | –
CO[C@]12C=C[C@@]3(C[C@@H]1NC(=O)CBr)[C@H]1Cc4ccc(O)c5c4[C@@]3(CCN1CC1CC1)[C@H]2O5 | 0.4 | –
C=CCN1CC[C@]23c4c5ccc(O)c4O[C@H]2C2(OC)C=C[C@@]3(C[C@@H]2NC(=O)/C=C/C(=O)OC)[C@H]1C5.O=C(O)C(=O)O | 6.3 | –
C=CCN1CC[C@]23c4c5ccc(O)c4O[C@H]2[C@@H](O)C=C[C@H]3[C@H]1C5.Cl | 0.8 | ED50 (Mus musculus [5]): 9.9 mg/kg
COC12C=C[C@@]3(C[C@@H]1N=S)[C@H]1Cc4ccc(O)c5c4[C@@]3(CCN1CC1CC1)[C@H]2O5.O=C(O)C(=O)O | 0.2 | –
C=CCN1CC[C@]23c4c5ccc(O)c4O[C@H]2C2(OC)C=C[C@@]3(C[C@@H]2N)[C@H]1C5.O=C(O)C(=O)O | – | ED50 (Mus musculus [5]): 7.6 mg/kg
C=CCN1CC[C@]23c4c5ccc(O)c4O[C@H]2C2(OC)C=C[C@@]3(C[C@@H]2NC(=O)CBr)[C@H]1C5.O=C(O)C(=O)O | 2.1 | –

Reference: ChEMBL document CHEMBL1123259, “Probes for narcotic receptor mediated phenomena. 13. Potential irreversible narcotic antagonist-based ligands derived from 6,14-endo-ethenotetrahydronororipavine with 7-(methoxyfumaroyl)amino, (bromoacetyl)amino, or isothiocyanate electrophiles: chemistry, biochemistry, and pharmacology” (1986)
